Laboratory results from patent US11241436B2, “Autophagy inducers for treatment of CNS conditions” (Northwestern University, priority 2017, dated 2022).

Test system: LC3
Test: Promega Autophagy Assay System (HiBiT-tagged LC3 reporter, autophagy flux)
Format: cell-based
Conditions: LC3 reporter signal; decrease = increased autophagy
Excerpt: The Promega Augophagy Assay System uses LC3 to monitor the autophagy process. […] LgBiT is a […] recombinant protein derived from NanoLuc. When HiBiT associates with LgBiT, a strong luciferase activity is reconstituted. An increase in autophagy will accelerate the degradation of LC3 reporter which decreases the assay signal. In contrast, inhibition of autophagy causes the accumulation of LC3 which will increase the reporter levels and assay signal.

Question: For `N=c1c2c(-c3ccccc3)c(-c3ccccc3)n(Cc3ccccc3)c2ncn1CCCO`, which AC50 is on record?
Answer: 3.66 µM
